Test results from patent US7488745B2, “Compounds for the treatment of inflammatory disorders” (Schering Corporation, priority 2004, dated 2009).

Sequences of proteins named here, by UniProt entry; tags and fusion partners are left off. Residues count along the entry.
UniProt P78536, 215-477 S266A/N452Q limits assumed: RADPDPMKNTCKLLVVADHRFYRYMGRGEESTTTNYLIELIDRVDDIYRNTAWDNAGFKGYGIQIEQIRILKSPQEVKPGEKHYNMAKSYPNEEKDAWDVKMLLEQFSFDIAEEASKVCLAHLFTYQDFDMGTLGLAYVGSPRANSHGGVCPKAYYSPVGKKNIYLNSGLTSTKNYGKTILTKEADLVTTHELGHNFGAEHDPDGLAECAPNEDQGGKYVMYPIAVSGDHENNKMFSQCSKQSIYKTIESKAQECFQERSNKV

Target: purified catalytic domain of recombinant human TACE (rhTACEc) (Homo sapiens, UniProt P78536, N452Q/S266A)
Assay: TACE kinetic assay: cleavage of internally quenched peptide substrate SPDL-3 (fluorescence)
[1] = Ki (nM), TACE inhibitory activity, class letters
[2] = Ki (nM), TABLE 6000, Ki printed as class symbols A-D
[3] = Ki Rating, TACE inhibitory activity, Table 3000
[4] = Ki (nM), Specific TACE inhibitory activity (Ki values)

Ki [2]	Ki [3]	SMILES	also measured
< 10 nM		COc1ccc2c(c1)C(=O)N(C[C@@]1(c3ccc(-c4cc(C)c5nn(C)cc5c4)cc3)NC(=O)NC1=O)C2 [Compound 9736]	
< 10 nM		COc1ccc2c(c1)C(=O)N(C[C@@]1(c3ccc(-c4cc(C(F)(F)F)cc5ncn(CC6CC6)c45)cc3)NC(=O)NC1=O)C2 [Compound 9505]	
< 10 nM		COc1ccc2c(c1)C(=O)N(C[C@@]1(c3ccc(Oc4ccncc4)cc3)NC(=O)NC1=O)C2 [Compound 9614]	
< 10 nM		COc1ccc2c(c1)C(=O)N(C[C@@]1(c3cc4ccncc4[nH]3)NC(=O)NC1=O)C2 [Compound 9230]	
< 10 nM		COc1ccc2c(c1)C(=O)N(C[C@@]1(c3cn(-c4cccnc4)nn3)NC(=O)NC1=O)C2 [Compound 9269]	
< 10 nM		COc1ccc2c(c1)C(=O)N(C[C@@]1(c3cc4cccnc4[nH]3)NC(=O)NC1=O)C2 [Compound 9233]	
< 10 nM		COc1ccc2c(c1)C(=O)N(C[C@@]1(c3ccc(-c4ccc5c(ccn5C)c4)cc3)NC(=O)NC1=O)C2 [Compound 9706]	
< 10 nM		COc1ccc2c(c1)C(=O)N(C[C@@]1(c3ccc(-c4cc(C)c5ncn(C)c5c4)cc3)NC(=O)NC1=O)C2 [Compound 9738]	
< 10 nM		COc1ccc2c(c1)C(=O)N(C[C@@]1(c3cc4nc(C)ccc4o3)NC(=O)NC1=O)C2 [Compound 9275]	Ki [4]: 0.98 nM
< 10 nM		COc1ccc2c(c1)C(=O)N(C[C@@]1(c3cc4ncccc4[nH]3)NC(=O)NC1=O)C2 [Compound 9231]	
< 10 nM		COc1ccc2c(c1)C(=O)N(C[C@@]1(c3cc(-c4cnc5ccccc5n4)no3)NC(=O)NC1=O)C2 [Compound 9255]	
< 10 nM		COc1ccc2c(c1)C(=O)N(C[C@@]1(c3ccc(-c4cc(C(F)(F)F)ccn4)cc3)NC(=O)NC1=O)C2 [Compound 9923]	
< 10 nM		COc1ccc2c(c1)C(=O)N(C[C@@]1(c3cc(C)no3)NC(=O)NC1=O)C2 [Compound 9256]	Ki [4]: 2.02 nM
< 10 nM		COc1ccc2c(c1)C(=O)N(C[C@@]1(c3cnn(-c4cccnc4)n3)NC(=O)NC1=O)C2 [Compound 9270]	
< 10 nM		CC#CCOc1ccc2c(c1)C(=O)N(C[C@@]1(c3ccc(-c4cnn(C(C)C)c4)cc3)NC(=O)NC1=O)C2 [Compound 9700]	
< 10 nM		COc1ccc2c(c1)C(=O)N(CC1(c3ccc(Oc4cccnc4)cc3)NC(=O)NC1=O)C2 (centres unmarked) [Compound 9610]	
10 to 100 nM		COc1ccc2c(c1)C(=O)N(C[C@@]1(c3ccc(-c4cc(C)c5c(cnn5CC5CC5)c4)cc3)NC(=O)NC1=O)C2 [Compound 9733]	
< 10 nM		CC#CCOc1ccc2c(c1)C(=O)N(C[C@@]1(c3ccc(-c4ccc5nn(C)cc5c4)cc3)NC(=O)NC1=O)C2 [Compound 9702]	
< 10 nM		COc1ccc2c(c1)C(=O)N(C[C@@]1(/C(Cl)=C/c3ccc4ccccc4n3)NC(=O)NC1=O)C2 [Compound 9234]	
< 10 nM		COc1ccc2c(c1)CN(CC1(c3ccc(Oc4ccnc5ccccc45)cc3)NC(=O)NC1=O)C2=O (centres unmarked) [Compound 9607]	
< 10 nM		COc1ccc2c(c1)C(=O)N(C[C@@]1(c3ccc(-c4ccc5cn[nH]c5c4)cc3)NC(=O)NC1=O)C2 [Compound 9712]	
< 10 nM		COc1ccc2c(c1)C(=O)N(C[C@@]1(c3ccc(-c4cc(C)c5nn(CC6CC6)cc5c4)cc3)NC(=O)NC1=O)C2 [Compound 9732]	
< 10 nM		COc1ccc2c(c1)C(=O)N(CC1(c3ccc(-c4cccnc4)nc3)NC(=O)NC1=O)C2 (centres unmarked) [Compound 9650]	
< 10 nM		CC#CCOc1ccc2c(c1)C(=O)N(C[C@@]1(c3ccc(-c4ccc5nn(CC6CC6)cc5c4)cc3)NC(=O)NC1=O)C2 [Compound 9749]	

The remaining lines, values behind:

SMILES	Ki [2]	Ki [3]	also measured
CC(C)CCOc1ccc2c(c1)CN(CC1(c3ccc(Br)cc3)NC(=O)NC1=O)C2=O (centres unmarked) [Compound 222]			Ki [1]: < 10 nM
COc1ccc2c(c1)CN(CC1(C3CCN(C4CCC4)CC3)NC(=O)NC1=O)C2=O (centres unmarked) [Compound 272]			Ki [1]: 100 to 1000 nM
COc1cc2c(cc1Cl)C(=O)N(CC1(C)NC(=O)NC1=O)C2 (centres unmarked) [Compound 5012]		10 to 100 nM	
O=C1NC(=O)C(CN2Cc3ccc(F)cc3C2=O)(c2ccc(Br)cc2)N1 (centres unmarked) [Compound 18]			Ki [1]: < 10 nM
O=C1NC(=O)[C@](CN2Cc3ccc(F)cc3C2=O)(c2ccc(-c3ccc4[nH]ncc4c3)cc2)N1 [Compound 6006]		< 10 nM	
COc1ccc2c(c1)C(=O)N(C[C@@]1(c3ccc(-c4nc5ccccc5s4)cc3)NC(=O)NC1=O)C2 [Compound 4021]		< 10 nM	
COc1ccc2c(c1)C(=O)N(C[C@@]1(c3ccc(-c4csc(N)n4)cc3)NC(=O)NC1=O)C2 [Compound 9004B]	< 10 nM		
O=C1NC(=O)[C@@](CN2Cc3ccc(F)cc3C2=O)(c2ccc(-c3ccc(-c4ccccn4)s3)cc2)N1 [Compound 3024]		100 to 1000 nM	
CC#CCOc1ccc2c(c1)C(=O)N(C[C@@]1(c3ccc(-c4ccnc(O)c4)cc3)NC(=O)NC1=O)C2 [Compound 204]			Ki [1]: < 10 nM
COc1ccc2c(c1)C(=O)N(C[C@@]1(c3ccc(-c4ccc(C(F)(F)F)cn4)cc3)NC(=O)NC1=O)C2 [Compound 4026]		< 10 nM	
O=C1NC(=O)[C@](CN2Cc3ccc(F)cc3C2=O)(c2ccc(-c3cncnc3)cc2)N1 [Compound 118]			Ki [1]: < 10 nM
COc1ccc2c(c1)C(=O)N(C[C@@]1(c3cc4cc(F)cnc4o3)NC(=O)NC1=O)C2 [Compound 9209]	< 10 nM		
Nc1ncc(-c2ccc([C@]3(CN4Cc5ccc(F)cc5C4=O)NC(=O)NC3=O)cc2)cn1 [Compound 8001]		< 10 nM	
COc1ccc2c(c1)C(=O)N(C[C@@]1(c3ccc(-c4ccc5c(cnn5C(C)C)c4)cc3)NC(=O)NC1=O)C2 [Compound 7010]		< 10 nM	
CC#CCOc1ccc2c(c1)CN(C[C@@]1(c3ccc(Br)cc3)NC(=O)NC1=O)C2=O [Compound 215]			Ki [1]: < 10 nM
CCOc1ccc2c(c1)C(=O)N(C[C@@]1(c3ccc(-c4cnn(C)c4)cc3)NC(=O)NC1=O)C2 [Compound 6021]		< 10 nM	
O=C1NC(=O)[C@](CN2Cc3ccc(OCC#Cc4cnc5ccccc5c4)cc3C2=O)(c2ccc(F)cc2)N1 [Compound 8006]		10 to 100 nM	
O=C1NC(=O)[C@@](CN2Cc3ccc(OCC#CCO)cc3C2=O)(c2ccc(-c3cnccn3)cc2)N1 [Compound 4011]		100 to 1000 nM	
COc1ccc2c(c1)C(=O)N(C[C@@]1(c3ccc(-c4cc(C)c5ncn(C)c5c4)cc3)NC(=O)NC1=O)C2 [Compound 7022]		< 10 nM	
O=C1NC(=O)[C@@](CN2Cc3cc(Cl)c(Cl)cc3C2=O)(c2ccc(F)cc2)N1 [Compound 106]			Ki [1]: < 10 nM
CC1(CN2Cc3ccc(C(F)(F)F)cc3C2=O)NC(=O)NC1=O (centres unmarked) [Compound 5004]		100 to 1000 nM	
COc1ccc2c(c1)C(=O)N(C[C@@]1(c3ccc(-c4cnn(-c5ccccc5)c4C)cc3)NC(=O)NC1=O)C2 [Compound 3019]		< 10 nM	
Cc1n[nH]c(C)c1-c1ccc([C@]2(CN3Cc4ccc(F)cc4C3=O)NC(=O)NC2=O)cc1 [Compound 159]			Ki [1]: < 10 nM

SMILES	Ki [2]	Ki [3]	also measured
COc1ccc2c(c1)C(=O)N(C[C@@]1(c3ccc(-c4ccncc4)cc3)NC(=O)NC1=O)C2 [Compound 8011]		< 10 nM	Ki [4]: 0.64 nM
O=C1NC(=O)[C@](CN2Cc3cc(OCC#CCO)ccc3C2=O)(c2ccc(F)cc2)N1 [Compound 239]			Ki [4]: 0.11 nM; Ki [1]: < 10 nM
Cn1cc(-c2ccc([C@]3(CN4Cc5ccc(F)cc5C4=O)NC(=O)NC3=O)cc2)cn1 [Compound 146]			Ki [1]: < 10 nM
O=C1NC(=O)C(CN2Cc3ccc(Cl)cc3C2=O)(CN2C[C@@H]3CCCN3C2=O)N1 (some centres unmarked) [Compound 40]			Ki [1]: > 1000 nM
Cc1cc(COc2ccc3c(c2)C(=O)N(C[C@@]2(c4ccccc4)NC(=O)NC2=O)C3)c2ccccc2n1 [Compound 197]			Ki [1]: < 10 nM
CC#CCOc1ccc2c(c1)CN(CC1(c3ccc(F)cc3)NC(=O)N(CC#CC)C1=O)C2=O (centres unmarked) [Compound 210]			Ki [1]: > 1000 nM
CC#CCOc1ccc2c(c1)C(=O)N(C[C@@]1(c3ccc(-c4ccccn4)s3)NC(=O)NC1=O)C2 [Compound 3011]		< 10 nM	
Cn1cc2cc(-c3ccc([C@]4(CN5Cc6ccc(OC(F)F)cc6C5=O)NC(=O)NC4=O)cc3)ccc2n1 [Compound 7025]		< 10 nM	
COc1ccc2c(c1)C(=O)N(C[C@@]1(c3cn[nH]c3)NC(=O)NC1=O)C2 [Compound 9003M]	< 10 nM		
O=C1NC(=O)C(CN2Cc3cc(OCc4cc(-c5ccccc5)nc5ccccc45)ccc3C2=O)(c2ccccc2)N1 (centres unmarked) [Compound 195]			Ki [1]: 10 to 100 nM
O=C1NC(=O)[C@](CN2Cc3ccc(Cl)cc3C2=O)(c2ccc(-c3cnccn3)cc2)N1 [Compound 4001]		< 10 nM	
O=C1NC(=O)[C@](CN2Cc3ccc(F)cc3C2=O)(c2ccc(-c3cc(O)nc4ccccc34)cc2)N1 [Compound 8004]		< 10 nM	
COc1ccc2c(c1)C(=O)N(C[C@@]1(c3ccc(OCC#CCO)cc3)NC(=O)NC1=O)C2 [Compound 5024]		< 10 nM	
O=C1NC(=O)[C@](CN2Cc3ccc(F)cc3C2=O)(c2ccc(-c3cccc4ncccc34)cc2)N1 [Compound 150]			Ki [1]: < 10 nM
O=C1NC(=O)C(CN2Cc3ccc(F)cc3C2=O)(c2nc3ccccc3s2)N1 (centres unmarked) [Compound 180]			Ki [1]: 10 to 100 nM
COc1ccc2c(c1)C(=O)N(C[C@]1(c3nccs3)NC(=O)NC1=O)C2 [Compound 9002D]	10 to 100 nM		
COc1ccc2c(c1)C(=O)N(C[C@]1(c3ccc(-c4cc(C)c5nc[nH]c5c4)cc3)NC(=O)NC1=O)C2 [Compound 3008]		10 to 100 nM	
O=C1NC(=O)C(CN2Cc3cc(F)c(F)cc3C2=O)(c2ccc(F)cc2)N1 (centres unmarked) [Compound 2030A]		100 to 1000 nM	
COc1ccc2c(c1)C(=O)N(C[C@@]1(c3ccc(-c4cnn(C(C)C)c4)cc3)NC(=O)NC1=O)C2 [Compound 6015]		< 10 nM	
COc1ccc2c(c1)C(=O)N(CC1(c3cc4ccccc4s3)NC(=O)NC1=O)C2 (centres unmarked) [Compound 2028]		< 10 nM	
O=C1NC(=O)C(CN2Cc3cc(O)c(F)cc3C2=O)(c2ccc(F)cc2)N1 (centres unmarked) [Compound 2031B]		10 to 100 nM	
COc1cncc(-c2ccc([C@]3(CN4Cc5ccc(OC)cc5C4=O)NC(=O)NC3=O)cc2)c1 [Compound 4025]		< 10 nM	Ki [4]: 0.84 nM
